Source: patent publication US20020094546A1

Target: PDGF BB (human) (UniProt P01127)
Experiment: cell-based or functional assay

A BrdU incorporation OD-blank, CCD1070 cells, BB + betaR Fc (BB alone 0.7535; + MOPC21 0.676) of 0.177 OD-blank and a BrdU incorporation OD-blank, NIH/3T3 cells, BB + betaR Fc (BB alone 0.983; + MOPC21 0.995) of 0.319 OD-blank were found for “soluble beta PDGF receptor-IgFc fusion (R&D Systems) (from UniProt P09619 33-530)” in this work.
